As a reminder, the IC50 is the midpoint of a concentration-inhibition curve.

The experiment deals with CDK2/cyclin E (Homo sapiens, UniProt P24941). The experiment in a line: CDK2/cyclin E kinase assay (GST-Rb phosphorylation).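 Also: enzyme source: His-tagged CDK2/cyclin E co-expressed in Sf9 insect cells via baculovirus, then purified by metal-chelate chromatography.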 As to conditions: Table 2, further results for CDK2/cyclin E inhibition.
For `Cc1nc(C)c(-c2ccnc(Nc3cccc(Cl)c3)n2)s1` [Compound 7, (3-Chloro-phenyl)-{4-(2,4-dimethyl-thiazol-5-yl)-pyrimidin-2-yl}-amine], the IC50 came out at 100 nM. This lies in the sub-micromolar range.
`Cc1nc(C)c(-c2ccnc(Nc3ccc([N+](=O)[O-])cc3)n2)s1` [Compound 13, {4-(2,4-Dimethyl-thiazol-5-yl)-pyrimidin-2-yl}-(4-nitro-phenyl)-amine] returned an IC50 of 8000 ± 3000 nM.
Next, `Cc1nc(C)c(-c2ccnc(Nc3ccccc3F)n2)s1` [Compound 20, {4-(2,4-Dimethyl-thiazol-5-yl)-pyrimidin-2-yl}-(2-fluoro-phenyl)-amine]: 2500 ± 100 nM; `Cc1nc(C)c(-c2ccnc(Nc3cccc(F)c3)n2)s1` [Compound 35, {4-(2,4-Dimethyl-thiazol-5-yl)-pyrimidin-2-yl}-(3-fluoro-phenyl)-amine]: 200 ± 100 nM; `Cc1nc(C)c(-c2ccnc(Nc3ccc(O)cc3)n2)s1` [Compound 41, 4-{4-(2,4-Dimethyl-thiazol-5-yl)-pyrimidin-2-ylamino}-phenol]: 60 nM.
Next, `Cc1nc(C)c(-c2ccnc(Nc3cccc(N)c3)n2)s1` [Compound 47, N-{4-(2,4-Dimethyl-thiazol-5-yl)-pyrimidin-2-yl}-benzene-1,3-diamine]: 800 ± 400 nM; `CNc1nc(C)c(-c2ccnc(Nc3cccc(O)c3)n2)s1` [Compound 85, 3-{4-(4-Methyl-2-methylamino-thiazol-5-yl)-pyrimidin-2-ylamino}-phenol]: 90 nM.

The record behind these values is patent US6699854B2, “Anti-cancer compounds” (Cyclacel Limited, priority 2000, dated 2004).
